Tested on: MV4; 11 cells
Assay: Test 1: Test for evaluating the inhibition of cell proliferation
Assay type: cell-based
Details: for IC50: cultured for 7 days, PrestoBlue cell viability
Description: MV4; 11 cells were obtained from American Type Culture Collection (ATCC). The cells were cultured at 37° C. in the presence of 5% CO2 in RPMI 1640 medium containing 10% fetal bovine serum and 1% penicillin/streptomycin.
The cells were plated to a 96-well plate in 2000 cells/well, each test compound was added thereto to adjust the final concentration of DMSO to 0.1% of DMSO, and the cells were cultured for 7 days. After the cultivation, the cell viability was calculated with PrestoBlue™ Cell Viability Reagent (Invitrogen, A13261).

Row | Compound | IC50 [µM] | cell proliferation inhibition activity (summary in words)
1 | CC(C)N(C)C(=O)c1cc(F)ccc1-n1cc(C2CCCN(C(=O)[C@H]3NC4CCC3CC4)CCC2)c2ccncc21 [Example 15, 2-(3-{1-[(3S)-2-azabicyclo[2.2.2]octane-3-carbonyl]azocan-5-yl}-1H-pyrrolo[2,3-c]pyridin-1-yl)-5-fluoro-N-methyl-N-(propan-2-yl)benzamide] | 0.42 | 
2 | CC(C)N(C(=O)c1cc(F)ccc1-n1cc(C2CC3CCC(C2)N3C(=O)[C@H]2NC3CCC2CC3)c2ccncc21)C(C)C (stereo partly drawn) [Example 22, 2-(3-{8-[(3S)-2-azabicyclo[2.2.2]octane-3-carbonyl]-8-azabicyclo[3.2.1]octan-3-yl}-1H-pyrrolo[2,3-c]pyridin-1-yl)-5-fluoro-N,N-di(propan-2-yl)benzamide] | 0.064 | potent cell proliferation inhibition activity
3 | CC(C)N(C(=O)c1cc(F)ccc1-n1cc(C2CCCN(C(=O)[C@H]3NC4CCC3CC4)CCC2)c2ccncc21)C(C)C [Example 17, 2-(3-{1-[(3S)-2-azabicyclo[2.2.2]octane-3-carbonyl]azocan-5-yl}-1H-pyrrolo[2,3-c]pyridin-1-yl)-5-fluoro-N,N-di(propan-2-yl)benzamide] | 0.83 | 

From patent US12559487B2, “Crosslinked optically active secondary amine derivative” (Sumitomo Pharma Co., Ltd., priority 2019, dated 2026)
